This is a selection; strong and weak results do not stand in their true shares. Activity calls are given as the source filed them. No stated cut-off is given here; in the data, active means activity change below about -80%; inconclusive means between about -30% and that limit; inactive means weaker than that.
On the % scale 0 is the no-effect control and ±100 the full control effect.

The nature of the assay: Small Molecules that selectively kill Giardia lamblia: qHTS.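 Further: parasites exposed to compound for two days anaerobically before the ATP read.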 Conditions: Giardia lamblia trophozoite viability; at 7.66 µM; stronger effect = lower value. From the text:
Giardia lamblia is a human pathogen afflicting impoverished nations, and the most common cause of outbreaks of diarrhea in the United States. Giardia has been classified by the CDC as a category B bioterrorism organism. The favored anti giardiasis drugs in the US are metronidazole or tinidazole, compounds that have undesirable side effects. Moreover, increasing resistance to drug regimes and recurrence are a concern. It is thus clear that alternative drug treatments are needed.
In a collaboration between the University of Maryland, College Park and the NIH Chemical Genomics Center, a bioluminescence Giardia viability assay based on the trophozoites' ATP content was developed. This assay is suitable for high throughput screening, and miniaturized the assay for compound screening in 1536-well plates. The goal of the project is to screen the Molecular Libraries Small Molecule Repository (MLSMR) for compounds that selectively kill Giardia trophozoites.
NIH Chemical Genomics Center [NCGC]
NIH Molecular Libraries Probe Centers Network [MLPCN]
Assay Submitter (PI): Osnat Herzberg, University of Maryland, College Park, MD.
1. Dispense 2 ul/well media
2. Dispense 23 nl/well compounds
3. Dispense 4 ul/well Giardia trophozoites at a concentration of 100 cells/well
4. Incubate 48 hrs at 37 deg C anaerobically
5. Dispense 4 ul/well ATPLite 1-Step Luminescence assay kit
6. Incubate 15-30 min at room temperature
7. Read luminescence signal on ViewLux plate reader
Regarding `O=[N+]([O-])c1cc([N+](=O)[O-])c(-c2cnn(-c3ccccc3)c2)c([N+](=O)[O-])c1`, the activity change was inactive: -29.7%.

Turning to `Cc1nc2ccc3ccccc3c2s1.O=[N+]([O-])c1cc([N+](=O)[O-])c(O)c([N+](=O)[O-])c1`, the activity change is inactive: 6.78%.

Turning to `O=[N+]([O-])c1cc([N+](=O)[O-])c(-n2nnc3ccccc32)c([N+](=O)[O-])c1`, the activity change was inactive: 20.4%.

In the case of `COc1ccccc1OP(C)(=O)Nc1c(C)cccc1C` (stereo not drawn), the activity change was inactive: -4.02%.

In the case of `CN1CCCCC1COC(=O)C1(O)c2ccccc2CCc2ccccc21` (stereo not drawn), the activity change was inactive: 14.8%.

As to `CP(=O)(Nc1ccc(SC(F)(F)F)cc1)Oc1ccccc1` (stereo not drawn), the activity change was inactive: -7.01%.

As to `CCCOc1ccc(NP(C)(=O)Oc2ccc(Cl)cc2)cc1` (stereo not drawn), the activity change was inactive: -0.286%.

Consider `O=[N+]([O-])c1cc([N+](=O)[O-])c(Nc2nnnn2CCO)c([N+](=O)[O-])c1`, for which the activity change was inactive: -17.7%.

Consider `CC1=C2N=C(C=C3N=C(C(C)=C4[N-][C@@](C)([C@@H]5N=C1[C@](C)(CCC(=O)NC[C@@H](C)OP(=O)([O-])O[C@H]1[C@@H](O)[C@@H](n6cnc7cc(C)c(C)cc76)O[C@@H]1CO)[C@H]5CC(N)=O)[C@@](C)(CC(N)=O)[C@@H]4CCC(N)=O)[C@@](C)(CC(N)=O)[C@@H]3CCC(N)=O)C(C)(C)[C@@H]2CCC(N)=O.[C-]#N.[Co+3]`, for which the activity change is inactive: 44.6%.

As for `CC1=NCCc2c1[nH]c1ccccc21.O=[N+]([O-])c1cc([N+](=O)[O-])c(O)c([N+](=O)[O-])c1`, the activity change is inactive: 7.49%.

Turning to `Cc1ccc(C)c(NP(C)(=O)Oc2ccccc2)c1` (stereo not drawn), the activity change was inactive: -4.11%.

With `CP(=O)(Nc1cccc(Br)c1)Oc1ccccc1` (stereo not drawn), the activity change was inactive: -4.24%.

In the case of `Cc1cc(C)cc(OP(C)(=O)Nc2ccccn2)c1` (stereo not drawn), the activity change is inactive: 10.5%.

Take `COc1ccccc1OP(C)(=O)Nc1cccc(Br)c1` (stereo not drawn): the activity change is inactive: -3.52%.

As for `CCOC(=O)c1ccc(NP(C)(=O)Oc2cc(C)cc(C)c2)cc1` (stereo not drawn), the activity change is inactive: 22.8%.

Consider `Cc1cc(C)cc(OP(C)(=O)Nc2ccc(C)cc2C)c1` (stereo not drawn), for which the activity change was inactive: -2.19%.

With `CCN(CC)CCCOC(=O)C(O)(c1ccccc1)c1ccccc1`, the activity change was inactive: -11.6%.

Turning to `Cc1ccc(NP(C)(=O)Oc2ccccc2)c(C)c1` (stereo not drawn), the activity change was inactive: 3.79%.

For the compound `COc1ccccc1OP(C)(=O)Nc1ccc(C)cc1` (stereo not drawn), the activity change was inactive: 0.417%.

As for `CCOC(=O)c1ccc(NP(C)(=O)Oc2ccccc2)cc1` (stereo not drawn), the activity change is inactive: -10.5%.

For the compound `Cc1cc(C)cc(OP(C)(N)=O)c1` (stereo not drawn), the activity change is inactive: 6.11%.

As for `COc1ccc(OP(C)(=O)Nc2cccc(F)c2)cc1` (stereo not drawn), the activity change is inactive: -1.04%.

On to `COc1ccccc1OP(C)(=O)Nc1cc(Cl)ccc1C` (stereo not drawn), for which the activity change is inactive: 11.3%.

In the case of `O=[N+]([O-])c1ccc2c(c1)C=Nc1ccccc1O2`, the activity change was inactive: 7.65%.

Turning to `Cc1cccc(C)c1OP(C)(N)=O` (stereo not drawn), the activity change is inactive: -24.7%.

Take `CC(C)(C)c1ccc(OP(C)(=O)Nc2ccc(SC(F)(F)F)cc2)cc1` (stereo not drawn): the activity change is inactive: -2.96%.

Consider `CP(=S)(Nn1cnnc1)Oc1ccccc1` (stereo not drawn), for which the activity change is inactive: -1.39%.

Turning to `CP(=O)(Nc1ccccc1Br)Oc1ccccc1` (stereo not drawn), the activity change was inactive: -12.4%.

In the case of `COc1ccccc1OP(C)(=O)Nc1ccccc1` (stereo not drawn), the activity change was inactive: 2.16%.

With `CCOC(=O)c1ccc(NP(C)(=O)Oc2ccc(OC)cc2)cc1` (stereo not drawn), the activity change was inactive: 22.2%.

Take `O=[N+]([O-])c1cc([N+](=O)[O-])c(O)c([N+](=O)[O-])c1.c1ccc(Oc2ccncc2)cc1`: the activity change was inactive: -12.9%.

Turning to `CCOP(C)(=S)SCC(=O)NC(C)C(=O)O` (stereo not drawn), the activity change is inactive: -18.7%.

As for `CP(=O)(Nc1ccccn1)Oc1ccc(Cl)cc1` (stereo not drawn), the activity change is inactive: -27.3%.

Regarding `CP(=O)(Oc1ccccc1)OC(c1ccccc1)C(F)(F)F` (stereo not drawn), the activity change was inactive: 8.41%.

For the compound `Cc1cccc(C)c1OP(C)(=O)Nc1ccc(SC(F)(F)F)cc1` (stereo not drawn), the activity change is inactive: 6.12%.

Turning to `CP(=O)(Nc1ccc(SC(F)(F)F)cc1)Oc1ccc(Cl)cc1` (stereo not drawn), the activity change was inactive: 16.2%.

In the case of `Cc1cc(C)cc(OP(C)(=O)Nc2ccc(SC(F)(F)F)cc2)c1` (stereo not drawn), the activity change was inactive: -0.138%.

As to `CCc1ccc(OP(C)(=O)N2CCN(c3ccc([N+](=O)[O-])cc3)CC2)cc1` (stereo not drawn), the activity change is inactive: -10.7%.

Regarding `CP(=O)(NC(=O)Nc1ccccc1)Oc1ccccc1` (stereo not drawn), the activity change was inactive: 25.1%.

As for `CC(C)(C)c1ccc(OP(C)(=O)O)cc1`, the activity change was inactive: 5.27%.

Take `COc1ccccc1OP(C)(=O)Nc1ccccc1Br` (stereo not drawn): the activity change was inactive: 2.24%.

In the case of `CP(=O)(Nc1ccc(Cl)cc1)Oc1ccc(F)cc1` (stereo not drawn), the activity change was inactive: 2.65%.

With `COc1ccc(OP(C)(=O)Nc2ccc(Br)cc2)cc1` (stereo not drawn), the activity change was inactive: 9.25%.

Take `CCN(CC)CC(O)COC(=O)C(O)(c1ccccc1)C1CCCCC1` (stereo not drawn): the activity change was inactive: -0.988%.

Take `O=C(OCCCN1CCCC1)C(O)(c1ccccc1)C1CCCCC1` (stereo not drawn): the activity change was inactive: -0.233%.

For the compound `COc1ccccc1OP(C)(=O)Nc1c(C)n(C)n(-c2ccccc2)c1=O` (stereo not drawn), the activity change is inactive: 12.7%.

Take `CCc1ccc(OP(C)(=O)Nc2cccnc2)cc1` (stereo not drawn): the activity change is inactive: 0.448%.

For the compound `CP(=O)(Oc1ccccc1)N1CCOC1=O` (stereo not drawn), the activity change is inactive: 21.2%.

Take `Nc1ccc2c(ccc3cccnc32)n1.O=[N+]([O-])c1cc([N+](=O)[O-])c(O)c([N+](=O)[O-])c1`: the activity change is inactive: 1.29%.

With `CCOC(=O)c1ccc(NP(C)(=O)Oc2ccc(Cl)cc2)cc1` (stereo not drawn), the activity change was inactive: 9.79%.

Regarding `CP(=O)(OC12CC3CC(CC(C3)C1)C2)OC12CC3CC(CC(C3)C1)C2`, the activity change was inactive: -13.6%.

In the case of `CP(=O)(OCCOc1ccccc1)OCCOc1ccccc1`, the activity change was inactive: 3.77%.

As for `CP(=O)(Nc1ccc(Cl)cc1Cl)Oc1ccccc1` (stereo not drawn), the activity change is inactive: -1.48%.

For `CCCCCCCCCCCCCCCC1C[N+](C)(C)CCOP(C)(=O)O1` (stereo not drawn), the activity change is inactive: -7.2%.

In the case of `Cc1cc(C)cc(OP(C)(=O)Nc2cccc(C(F)(F)F)c2)c1` (stereo not drawn), the activity change is inactive: 3.46%.

`COc1ccccc1OP(C)(=O)Nc1ccc(C)c(C)c1` (stereo not drawn): the activity change is inactive: 7.45%.

With `COc1ccc(OP(C)(=O)Nc2ccccc2Br)cc1` (stereo not drawn), the activity change is inactive: -11%.

On to `Cc1c(NP(C)(=O)Oc2ccc(C(C)C)cc2)c(=O)n(-c2ccccc2)n1C` (stereo not drawn), for which the activity change is inactive: 2.45%.

The values above are taken from PubChem BioAssay AID540267 (National Center for Advancing Translational Sciences (NCATS), 2011).
